Assay [1] has as its system formalin-induced flinching. Description: Formalin-induced nociception, late (tonic) phase flinching. Type of assay: in vivo, male Sprague-Dawley rats.
The target of assay [2] is T1, cloned human kappa receptor (Homo sapiens, UniProt P41145). Conditions: for % @ 1 μM, diprenorphine: at 1 μM compound.
Assay [3] deals with T1, cloned human kappa receptor. Description: [3H]U69593 (agonist) binding to the cloned human kappa receptor.
The mark [4] stands for this setting: read-out: Ki (nM) [3H]-Diprenorphin κ, Table IIIA.
Setting [5] is: read-out: Ki(nM) U-69593, [3H]U69593 binding, compounds of Formula IV.
Where [6] appears, read: read-out: Ki(nM) diprenorphine, [3H]diprenorphine binding, compounds of Formula IV.
Setting [7] is: read-out: Ki (nM) k (mg) [3H]U69,593, Table II.
The mark [8] stands for this setting: read-out: Ki (nM) k [3H] Diprenorphin, Table II.
Where [9] appears, read: read-out: Ki(nM) [3H]-Diprenorphin, Table IVA.
[10] abbreviates: late phase formalin-induced flinching.

Protein sequences, listed by entry. Tags and fused reporters are not part of them. Lines headed by an entry give the natural chain unless they say otherwise; changes in a name come on top.
UniProt P41145: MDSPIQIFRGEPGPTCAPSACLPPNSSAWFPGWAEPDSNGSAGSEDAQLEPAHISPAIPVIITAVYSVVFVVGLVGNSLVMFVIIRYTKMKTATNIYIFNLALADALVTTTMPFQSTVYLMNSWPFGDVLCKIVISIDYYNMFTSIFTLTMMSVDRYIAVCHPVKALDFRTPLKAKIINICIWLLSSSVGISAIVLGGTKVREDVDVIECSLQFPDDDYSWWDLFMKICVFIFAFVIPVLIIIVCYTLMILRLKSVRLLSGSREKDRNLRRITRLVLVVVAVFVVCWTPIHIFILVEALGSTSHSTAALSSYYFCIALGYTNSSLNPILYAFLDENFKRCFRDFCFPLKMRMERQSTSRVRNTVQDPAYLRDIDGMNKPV

Read-outs that look alike come from different tables or passages of the source.

In the case of `CN(C(=O)Cc1ccccn1)[C@H](CN1CC[C@H](O)C1)c1ccccc1`, the “Late Phase Formalin A50” value in assay [1] (Table IIIA) amounted to 1.4 mg/kg. In addition, the Ki in assay [2] (setting [4]) was 5.2 nM.
Turning to `CN(C(=O)Cc1ccccc1N)[C@@H]1CCCC[C@H]1N1CCCC1` (racemic), the Ki in assay [3] (setting [5]) worked out at 433 nM; in assay [2] (setting [6]), 1030 nM.
`CN(C(=O)Cc1ccc(Cl)c(Cl)c1)[C@H]1c2cc(N)ccc2CC[C@@H]1N1CCCC1` (racemic): the Ki in assay [3] (setting [7]) was 0.35 nM; in assay [2] (setting [8]), 2.2 nM.
`CN(C(=O)Cc1ccc(S(C)(=O)=O)cc1)[C@H]1c2cc([N+](=O)[O-])ccc2CC[C@@H]1N1CCCC1` (racemic): the inhibition constant (Ki) in assay [3] (setting [7]) stood at 12.8 nM.
Turning to `COc1ccc(CC(=O)N(C)[C@H](CN2CCCC2)c2ccccc2)cc1OC`, the Ki in assay [2] (setting [4]) came out at 2.8 nM.
`CN(C(=O)Cc1ccc(Cl)c(Cl)c1)[C@H]1c2ccccc2C[C@@H]1N1CCCC1` (racemic): the figures for the Ki in assay [3] (setting [7]) and in assay [2] (setting [8]) were 2 nM and 12 nM, respectively.
With `CNS(=O)(=O)c1cccc(CC(=O)N(C)[C@@H]2CCCC[C@H]2N2CCCC2)c1OC.Cl` (racemic), the Ki in assay [2] (setting [9]) is 294 nM.
For `CN(C(=O)Cc1ccc(C(F)(F)F)cc1)[C@@H]1CCCC[C@H]1N1CCCC1.Cl` (racemic), the “% @ 1 μM, diprenorphine” value in assay [2] ([3H]diprenorphine binding) amounted to 77% @ 1 μM.
As for `CN(C(=O)Cc1cc([N+](=O)[O-])cc(C(F)(F)F)c1)[C@@H]1CCCC[C@H]1N1CCCC1` (racemic), the inhibition constant (Ki) in assay [3] (setting [5]) was determined as 10.8 nM.
On to “2-(2-Nitrocinnamyl)-N-methyl-N-[(1S)-1-phenyl-2-(1-pyrrolidinyl) ethyl]acetamide hydrochloride”, for which the inhibition constant (Ki) in assay [2] (setting [4]) came out at 164 nM.
As for `CN(C(=O)Cc1ccc(Cl)c(Cl)c1)[C@H]1c2cc(OCC(=O)O)ccc2CC[C@@H]1N1CCCC1` (racemic), the Ki in assay [3] (setting [7]) was found to be 7 nM; in assay [2] (setting [8]), 40 nM.
For `CN(C(=O)Cc1ccc(O)c(O)c1)[C@H](CN1CCCC1)c1ccccc1`, the Ki in assay [2] (setting [4]) stood at 8.8 nM.
With `CN(C(=O)Cc1cccc(C(F)(F)F)c1)[C@@H]1CCCC[C@H]1N1CCCC1` (racemic), the inhibition constant Ki in assay [3] (setting [5]) came to 11.2 nM; in assay [2] (setting [6]), 192 nM.
Consider `CN(C(=O)Cc1ccc(N)cc1C(F)(F)F)[C@@H]1CCCC[C@H]1N1CCCC1` (racemic), for which, in assay [3] (setting [5]), the inhibition constant Ki was 21 nM.
On to “2-(3,4-Dichlorocinnamyl)-N-methyl-N-[(1S)-1-phenyl-2-(1-Pyrrolidinyl)-ethyl]acetamide hydrochloride”, for which, in assay [2] (setting [4]), the Ki was determined as 362 nM.
As to `CN(C(=O)Cc1cc(Cl)c(Cl)cc1NC(=O)/C=C\C(=O)O)[C@H]1CCCC[C@@H]1N1CCCC1` (racemic), the Ki in assay [2] (setting [9]) was determined as 77 nM.
For the compound `COc1ccc2c(c1)[C@H](N(C)C(=O)Cc1ccc(Cl)c(Cl)c1)[C@@H](N1CCCC1)CC2` (racemic), the Ki is 0.8 nM in assay [3] (setting [7]) and 4.7 nM in assay [2] (setting [8]).
Taken in the same sequence, the figures for `CN(C(=O)Cc1ccc(Cl)c(Cl)c1)[C@H]1c2cc(O)ccc2CC[C@@H]1N1CCCC1` (racemic) were 0.18 nM and 0.6 nM.
Regarding `CN(C(=O)Cc1ccccc1NS(C)(=O)=O)[C@@H]1CCCC[C@H]1N1CCCC1.Cl` (racemic), the inhibition constant Ki in assay [3] (setting [5]) amounted to 675 nM; in assay [2] (setting [6]), 3180 nM.
Turning to `CN(C(=O)Cc1cccc([N+](=O)[O-])c1)C1c2ccccc2CC1N1CCCC1` (racemic), the Ki in assay [3] (setting [7]) came to 1.8 nM; in assay [2] (setting [8]) it was 13 nM.
Consider `CN(C(=O)Cc1ccc(Cl)c(Cl)c1)[C@H]1c2ccccc2CCC[C@@H]1N1CCCC1` (racemic), for which the Ki came out at 2.8 nM in assay [3] (setting [7]) and 8.4 nM in assay [2] (setting [8]).
`CN(C(=O)Cc1cc(Cl)c(Cl)cc1[N+](=O)[O-])[C@@H]1CCCC[C@H]1N1CCCC1.Cl` (racemic): the “Late Phase Formalin A50” value in assay [1] (setting [10]) amounted to 3.5 mg.
With `CN(C(=O)Cc1ccc(C(F)(F)F)cc1)[C@@H]1CCCC[C@H]1N1CCCC1` (racemic), in assay [3] (setting [5]), the Ki is 3.75 nM.
Take `CN(C(=O)Cc1cc(Cl)c(Cl)cc1[N+](=O)[O-])[C@@H]1CCCC[C@H]1N1CCCC1` (racemic): the results for the inhibition constant (Ki) in assay [3] (setting [5]) and in assay [2] (setting [6]) were 1.4 nM and 6.7 nM, respectively.
Regarding `CN(C(=O)Cc1ccc(S(C)(=O)=O)cc1)[C@H]1c2ccccc2C[C@@H]1N1CCCC1` (racemic), the Ki in assay [3] (setting [7]) came to 29 nM.
For the compound “2-(5-Bromo-3-pyridyl)-N-methyl-N-[(1S)-1-phenyl-2-pyrrolidinyl ethyl]acetamide hydrochloride”, in assay [2] (setting [4]), the Ki is 0.56 nM.
Turning to `CN(C(=O)Cc1ccc(C(F)(F)F)cc1)[C@H](CN1CC[C@H](O)C1)c1ccccc1`, the “Late Phase Formalin, % @ 300” value in assay [1] (Table IIIA) is recorded as 97% @ 300. Besides, the inhibition constant (Ki) in assay [2] (setting [4]) was found to be 0.17 nM.
On to `CN(C(=O)Cc1cc(Cl)c(Cl)cc1N)[C@@H]1CCCC[C@H]1N1CCCC1` (racemic), for which the inhibition constant Ki is 1.7 nM in assay [3] (setting [5]) and 10.6 nM in assay [2] (setting [6]).
With `CN(C(=O)Cc1ccc(C(F)(F)F)cc1[N+](=O)[O-])[C@@H]1CCCC[C@H]1N1CCCC1.Cl` (racemic), in assay [2] ([3H]diprenorphine binding), the “% @ 1 μM, diprenorphine” value is 59% @ 1 μM.
`CN(C(=O)Cc1cncc(Br)c1)[C@H](CN1CC[C@H](O)C1)c1ccccc1`: in assay [1] (Table IIIA), the “Late Phase Formalin, % @ 300” value is 88% @ 300. In assay [2] (setting [4]), the Ki is 0.44 nM.
`CN(C(=O)Cc1ccc(F)cc1)[C@H](CN1CCCC1)c1ccccc1`: the Ki in assay [2] (setting [4]) was 1.1 nM.
`CN(C(=O)Cc1ccccc1F)[C@H](CN1CCCC1)c1ccccc1`: the Ki in assay [2] (setting [4]) was 4.45 nM.
Take `CN(C(=O)Cc1ccccc1C(F)(F)F)[C@@H]1CCCC[C@H]1N1CCCC1.Cl` (racemic): in assay [2] ([3H]diprenorphine binding), the “% @ 1 μM, diprenorphine” value came out at 53% @ 1 μM.
On to `CN(C(=O)Cc1ccccc1NCC(=O)O)C1CCCCC1N1CCCC1` (racemic), for which the Ki in assay [3] (setting [5]) was found to be 866 nM.
Take `CN(C(=O)Cc1ccc(N)cc1C(F)(F)F)[C@@H]1CCCC[C@H]1N1CCCC1.Cl` (racemic): the “% @ 1 μM, diprenorphine” value in assay [2] ([3H]diprenorphine binding) was 50% @ 1 μM.
On to `CN(C(=O)Cc1ccc(C(F)(F)F)cc1NS(C)(=O)=O)[C@@H]1CCCC[C@H]1N1CCCC1` (racemic), for which the inhibition constant Ki in assay [3] (setting [5]) was 216 nM.
Same read-out and setting: for `CN(C(=O)Cc1ccccc1C(F)(F)F)[C@@H]1CCCC[C@H]1N1CCCC1` (racemic) the value was 25 nM.
Regarding `CN(C(=O)Cc1ccc(C(F)(F)F)cc1[N+](=O)[O-])[C@@H]1CCCC[C@H]1N1CCCC1` (racemic), in assay [3] (setting [5]), the inhibition constant (Ki) stood at 13.4 nM.
As to `CN(C(=O)Cc1cccc(C(F)(F)F)c1[N+](=O)[O-])[C@@H]1CCCC[C@H]1N1CCCC1` (racemic), the inhibition constant Ki in assay [3] (setting [5]) is 1.4 nM; in assay [2] (setting [6]) it was 5.65 nM.
For `CN(C(=O)C(c1ccccc1)c1ccccc1)[C@H](CN1CC[C@H](O)C1)c1ccccc1` [III-43, reference compound], the Ki in assay [3] (read-out: Ki (nM) k [3H]U69.593, Table III) stood at 0.34 nM; in assay [2] (read-out: Ki (nM) k [3H]Diprenorphin, Table III), 0.52 nM.
Consider `CN(C(=O)Cc1cc(Cl)c(Cl)cc1[N+](=O)[O-])[C@H]1c2cc([N+](=O)[O-])ccc2CC[C@@H]1N1CCCC1` (racemic), for which the inhibitory constant (Ki) in assay [3] (setting [7]) was 0.8 nM; in assay [2] (setting [8]), 2.8 nM.
On to `CN(C(=O)Cc1cncc(Br)c1)C1CCCCC1N1CCCC1` (stereo not drawn), for which, in assay [2] (setting [9]), the Ki is 340 nM.
For `CN(C(=O)Cc1ccc(C(F)(F)F)cc1NCC(=O)O)C1CCCCC1N1CCCC1` (racemic), the Ki was found to be 2.35 nM in assay [3] (setting [5]) and 43.5 nM in assay [2] (setting [6]).
As for `CN(C(=O)Cc1ccc(C(F)(F)F)cc1)C(CN1CCCC1)c1cccc(O)c1` (stereo not drawn), in assay [2] (setting [4]), the inhibition constant (Ki) came to 0.59 nM.
For `CN(C(=O)Cc1cc(Cl)c(Cl)cc1[N+](=O)[O-])[C@H]1c2ccccc2C[C@@H]1N1CCCC1` (racemic), the inhibition constant (Ki) in assay [3] (setting [7]) was 0.74 nM; in assay [2] (setting [8]) it was 5.7 nM.
As for `CN(C(=O)Cc1ccc(Cl)c(Cl)c1)[C@H]1c2cc([N+](=O)[O-])ccc2CC[C@@H]1N1CCCC1` (racemic), the Ki was 0.7 nM in assay [3] (setting [7]) and 9.6 nM in assay [2] (setting [8]).
With `COc1cccc(C(CN2CCCC2)N(C)C(=O)Cc2ccc(C(F)(F)F)cc2)c1` (stereo not drawn), the Ki in assay [2] (setting [4]) was determined as 0.64 nM.
Turning to `CN(C(=O)Cc1ccccc1[N+](=O)[O-])[C@@H]1CCCC[C@H]1N1CCCC1` (racemic), the Ki in assay [3] (setting [5]) stood at 100 nM; in assay [2] (setting [6]), 596 nM.
With `CN(C(=O)Cc1cc([N+](=O)[O-])cc(C(F)(F)F)c1)[C@@H]1CCCC[C@H]1N1CCCC1.Cl` (racemic), the “% @ 1 μM, diprenorphine” value in assay [2] ([3H]diprenorphine binding) amounted to 61% @ 1 μM.
Turning to `CN(C(=O)Cc1ccc(S(C)(=O)=O)cc1)[C@@H]1CCCC[C@H]1N1CCCC1.Cl` (racemic), the Ki in assay [3] (setting [5]) is 96 nM.
Turning to `CN(C(=O)Cc1cc(Cl)c(Cl)cc1N)[C@@H]1CCCC[C@H]1N1CCCC1.Cl` (racemic), the “Late Phase Formalin A50” value in assay [1] (setting [10]) is reported as 72.0 mg.
On to `CN(C(=O)Cc1ccc(C(F)(F)F)cc1N)[C@@H]1CCCC[C@H]1N1CCCC1` (racemic), for which the Ki in assay [3] (setting [5]) came out at 5.4 nM.
For the compound `CN(C(=O)Cc1ccc(C(F)(F)F)cc1N)[C@@H]1CCCC[C@H]1N1CCCC1.Cl` (racemic), the “% @ 1 μM, diprenorphine” value in assay [2] ([3H]diprenorphine binding) was found to be 43% @ 1 μM.

For the origin of these results see patent US20050020576A1, “Kappa agonist compounds and pharmaceutical formulations thereof” (priority 1996, published 2005).
